{
  "source": "patent US20250268857A1",
  "about": "(priority 2020, published 2025)",
  "settings": "guinea pig, in vivo",
  "data": [
    {"substance": "zinc gluconate", "values": [
      {"measurement": "adverse health effects from inhalation of the mist", "result": "no guinea pigs have been found to exhibit any other adverse health effects"}
    ]}
  ]
}
